# Reference: patent US8404729B2, “Heterocyclic tetracyclic tetrahydrofuran derivatives” (Janssen Pharmaceutica, NV, priority 2005, dated 2013)
# The chains behind the UniProt entries cited, without tags or fusion partners. Where a name states a change or a piece, a line headed by the entry shows the natural chain unless it says otherwise. Residues count along the entry.
# UniProt Q63380, 1-617: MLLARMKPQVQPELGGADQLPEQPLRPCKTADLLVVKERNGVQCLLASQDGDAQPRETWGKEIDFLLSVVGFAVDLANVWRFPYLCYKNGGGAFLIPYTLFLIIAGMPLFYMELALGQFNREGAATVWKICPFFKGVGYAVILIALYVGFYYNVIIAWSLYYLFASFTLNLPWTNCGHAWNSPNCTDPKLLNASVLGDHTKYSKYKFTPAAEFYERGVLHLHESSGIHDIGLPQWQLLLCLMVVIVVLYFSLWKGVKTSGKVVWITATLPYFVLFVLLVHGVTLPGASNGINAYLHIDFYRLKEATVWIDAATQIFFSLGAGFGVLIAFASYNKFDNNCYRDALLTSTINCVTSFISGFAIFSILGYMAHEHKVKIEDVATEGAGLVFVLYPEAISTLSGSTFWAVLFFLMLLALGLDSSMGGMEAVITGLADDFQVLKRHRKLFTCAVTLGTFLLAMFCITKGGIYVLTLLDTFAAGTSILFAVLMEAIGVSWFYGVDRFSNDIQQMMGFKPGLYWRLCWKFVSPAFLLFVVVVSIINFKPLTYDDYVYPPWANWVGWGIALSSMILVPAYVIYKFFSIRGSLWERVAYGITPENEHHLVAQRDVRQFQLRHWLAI
# UniProt P14842, whole entry: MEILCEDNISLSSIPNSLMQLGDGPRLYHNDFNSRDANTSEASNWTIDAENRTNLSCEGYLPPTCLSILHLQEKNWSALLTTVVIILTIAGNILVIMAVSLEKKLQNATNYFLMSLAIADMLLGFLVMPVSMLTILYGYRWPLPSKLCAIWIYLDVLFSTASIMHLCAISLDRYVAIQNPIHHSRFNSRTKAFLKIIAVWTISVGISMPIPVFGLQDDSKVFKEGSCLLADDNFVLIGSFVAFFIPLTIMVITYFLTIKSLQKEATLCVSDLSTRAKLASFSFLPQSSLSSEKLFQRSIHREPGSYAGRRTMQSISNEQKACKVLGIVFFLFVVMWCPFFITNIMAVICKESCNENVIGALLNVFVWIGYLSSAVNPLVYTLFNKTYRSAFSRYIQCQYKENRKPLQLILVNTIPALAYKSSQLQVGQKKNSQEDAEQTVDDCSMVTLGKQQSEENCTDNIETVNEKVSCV
# UniProt P14416, whole entry: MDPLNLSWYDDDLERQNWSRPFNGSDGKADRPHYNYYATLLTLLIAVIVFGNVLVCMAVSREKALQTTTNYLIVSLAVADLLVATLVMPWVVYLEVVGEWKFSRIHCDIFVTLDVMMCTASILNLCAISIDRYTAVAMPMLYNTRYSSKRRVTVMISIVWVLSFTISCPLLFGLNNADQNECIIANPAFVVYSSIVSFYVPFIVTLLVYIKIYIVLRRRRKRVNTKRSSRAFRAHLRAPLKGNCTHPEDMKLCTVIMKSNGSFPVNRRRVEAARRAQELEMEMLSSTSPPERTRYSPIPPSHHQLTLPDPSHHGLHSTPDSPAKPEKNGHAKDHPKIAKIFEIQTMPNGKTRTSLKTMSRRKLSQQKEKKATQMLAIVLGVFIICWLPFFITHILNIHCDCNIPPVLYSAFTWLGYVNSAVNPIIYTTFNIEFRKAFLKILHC
# UniProt K7GSR7, 1-457: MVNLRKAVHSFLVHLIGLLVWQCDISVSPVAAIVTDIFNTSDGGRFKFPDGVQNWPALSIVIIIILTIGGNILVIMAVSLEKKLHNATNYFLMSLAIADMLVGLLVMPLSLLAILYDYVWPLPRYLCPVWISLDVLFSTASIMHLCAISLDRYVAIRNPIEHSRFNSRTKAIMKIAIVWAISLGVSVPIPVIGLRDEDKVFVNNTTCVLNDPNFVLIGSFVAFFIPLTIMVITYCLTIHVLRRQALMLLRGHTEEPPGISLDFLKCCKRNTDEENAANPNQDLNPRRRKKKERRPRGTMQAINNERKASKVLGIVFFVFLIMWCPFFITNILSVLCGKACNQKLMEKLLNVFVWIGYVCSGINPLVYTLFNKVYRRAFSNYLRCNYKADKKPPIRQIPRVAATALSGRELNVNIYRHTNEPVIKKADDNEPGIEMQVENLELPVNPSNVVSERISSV
# Assays:
# NET = NET (Rattus norvegicus, UniProt Q63380); assay: In vitro determination of NET reuptake inhibition ([3H]Nixosetine binding); conditions: rat brain cortex membranes
# 5-HT2A receptors = 5-HT2A receptors (Rattus norvegicus, UniProt P14842); assay: In vitro binding affinity for 5-HT2A receptor (3H-ketanserin radioligand binding); conditions: frontal cortex of the rat
# [1] = biological target: human Dopamine D2L receptor (Homo sapiens, UniProt P14416); assay: In vitro binding affinity for human D2L receptor ([3H]Spiperone); conditions: membranes of human D2L receptor-transfected CHO cells
# Protocol: Frozen membranes of human Dopamine D2L receptor-transfected CHO cells were thawed, briefly homogenised using an Ultra-Turrax T25 homogeniser and diluted in Tris-HCl assay buffer containing NaCl, CaCl2, MgCl2, KCl (50, 120, 2, 1, and 5 mM respectively, adjusted to pH 7.7 with HCl) to an appropriate protein concentration optimised for specific and non-specific binding. Radioligand [^3H]Spiperone (NEN, specific activity ˜70 Ci/mmol) was diluted in assay buffer at a concentration of 2 nmol/L. Prepared radioligand (50 μl), along with 50 μl of either the 10% DMSO control, Butaclamol (10^−6 mol/l final concentration), or compound of interest, was then incubated (30 min, 37° C.) with 400 μl of the prepared membrane solution. Membrane-bound activity was filtered through a Packard Filtermate harvester onto GF/B Unifilterplates and washed with ice-cold Tris-HCl buffer (50 mM; pH 7.7; 6×0.5 ml). Filters were allowed to dry before adding scintillation fluid and counting in a Topcount scintillation counter. Percentage specific bound and competition binding curves were calculated using S-Plus software (Insightful).
# 5-HT2C receptors = 5-HT2C receptors (Sus scrofa, UniProt K7GSR7); assay: In vitro binding affinity for 5-HT2C receptor (3H-mesulergine radioligand binding); conditions: choroid plexus of the pig
# Protocol: The interaction of the compounds of Formula (I) with 5-HT2A and 5-HT2C receptors was assessed in in vitro radioligand binding experiments. In general, a low concentration of a radioligand with a high binding affinity for the receptor is incubated with a sample of a tissue preparation enriched in a particular receptor (1 to 5 mg tissue) in a buffered medium (0.2 to 5 ml). During the incubation, the radioligands bind to the receptor. When equilibrium of binding is reached, the receptor bound radioactivity is separated from the non-bound radioactivity, and the receptor bound activity is counted. The interaction of the test compounds with the receptors is assessed in competition binding experiments. Various concentrations of the test compound are added to the incubation mixture containing the tissue preparation and the radioligand. Binding of the radioligand will be inhibited by the test compound in proportion to its binding affinity and its concentration. The radioligand used for 5-HT2A binding affinity is ^3H-ketanserin and the tissue used is the frontal cortex of the rat. The radioligand used for 5-HT2c binding affinity is ^3H-mesulergine and the tissue used is the choroid plexus of the pig.
Structure (SMILES),NET-inhibition (pIC50) (NET; tested form: oxalate (1:1)),5-HT2A (pIC50) (5-HT2A receptors; tested form: oxalate (1:1)),D2 (pIC50) ([1]; tested form: oxalate (1:1)),5-HT2C (pIC50) (5-HT2C receptors; tested form: oxalate (1:1)),NET-inhibition (pIC50) (NET; tested form: oxalate),5-HT2A (pIC50) (5-HT2A receptors; tested form: oxalate),D2 (pIC50) ([1]; tested form: oxalate),5-HT2C (pIC50) (5-HT2C receptors; tested form: oxalate)
CN(C)C[C@H]1C[C@@H]2c3ccccc3Sc3sccc3[C@@H]2O1 (relative stereo),6.3,7.1,<6,6.6,,,,
CN(C)C[C@H]1C[C@@H]2c3ccccc3Sc3sccc3[C@H]2O1 (relative stereo),,,,,7.5,7.0,5.9,7.6
